## Measured affinities in a library of Ab-95 light chain variants

Reference: Engelhart et al. 2022, doi:10.1038/s41597-022-01779-4. File: FLAb, binding data.

Antigen: PDVDLGDISGINAS, a 14-residue peptide of the SARS-CoV-2 spike HR2 region.

The variants keep the heavy chain, the linker and the frameworks of Ab-95 (scFv order VH, a (GGGGS)3 linker, VL).
VH: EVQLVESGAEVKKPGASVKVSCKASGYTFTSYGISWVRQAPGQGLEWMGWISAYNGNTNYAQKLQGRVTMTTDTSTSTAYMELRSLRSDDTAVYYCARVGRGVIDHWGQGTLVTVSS
VL: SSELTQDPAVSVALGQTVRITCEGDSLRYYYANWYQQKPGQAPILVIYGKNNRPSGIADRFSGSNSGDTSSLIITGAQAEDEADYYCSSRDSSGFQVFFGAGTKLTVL

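Phage display of a naive human antibody library on the peptide gave the parent. Library AAYL52 holds single substitutions and randomly drawn double and triple substitutions in the CDRs. Affinity was read by AlphaSeq, a pooled yeast mating assay with surface-displayed partners. The frequency of each diploid, read from paired DNA barcodes, reflects how well the two displayed proteins bind. Each replicate has its own calibration line, from reference interactions of the BCL2 family. The assay was run in three technical replicates.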

Changes read parent residue, position, new residue, counted from the first residue of the VL shown.
Values are apparent Kd, the geometric mean of the replicates that gave a signal; lower means stronger binding.
Where no diploid with the target was found in any replicate, the entry reads "no signal": below detection, most likely a poor binder, though not proof of it.
For reference, the parent read 200 nM as the reference entry and 180 nM as a member of this library.
Empty control strains, which show no peptide, gave a signal in 28% of pairings with library AAYL52; the median was 8.2 µM and 95% of these signals were weaker than 800 nM. No background was subtracted. The control count says in how many pairings with the empty strains this scFv gave a signal.

| changes | apparent Kd | replicates with signal | signal with controls |
|---|---|---|---|
| N51W S93T F98S | 3.8 µM | 1 of 3 | 2 of 9 |
| S88Y G94E | 950 nM | 3 of 3 | 4 of 9 |
| S89D F95V V97H | 2.5 µM | 3 of 3 | 3 of 9 |
| L27F N33V Q96P | 9.0 µM | 1 of 3 | 5 of 9 |
| Y30R R90E S92K | 420 nM | 3 of 3 | 4 of 9 |
| Y31D K50W S55G | 49 nM | 3 of 3 | 6 of 9 |
| S55D R90I S93A | 230 nM | 3 of 3 | 3 of 9 |
| K50I R53K | 1.2 µM | 3 of 3 | 1 of 9 |
| L27F Y29V F95T | 1.7 µM | 1 of 3 | 1 of 9 |
| R28W G49S Q96D | no signal | 0 of 3 | 0 of 9 |
| R53T G94T Q96N | 11 µM | 3 of 3 | 3 of 9 |
| L27Q Y31N N33F | 1.6 µM | 1 of 3 | 3 of 9 |
| N33M N51Y S92T | no signal | 0 of 3 | 0 of 9 |
| Y29M N33A Q96N | 110 µM | 1 of 3 | 2 of 9 |
| Y30R A32K F95D | 12 µM | 2 of 3 | 5 of 9 |
| S26Q Y29T | 1.1 µM | 3 of 3 | 5 of 9 |
| G24Y Y31W F98Q | 1.4 µM | 2 of 3 | 3 of 9 |
| S26W N51C N52H | no signal | 0 of 3 | 1 of 9 |
| D25R K50H P54W | 1.3 µM | 3 of 3 | 0 of 9 |
| G49A K50D S92F | 1.7 µM | 3 of 3 | 1 of 9 |
| E23Q G49V S88V | 100 µM | 2 of 3 | 2 of 9 |
| G49I S89M Q96S | 22 µM | 1 of 3 | 1 of 9 |
| G24P R28I G94T | 41 µM | 2 of 3 | 2 of 9 |
| S88K Q96T F98V | no signal | 0 of 3 | 3 of 9 |
| G24I S26V R28D | 12 µM | 2 of 3 | 1 of 9 |
| D25P F95Q Q96N | 110 nM | 3 of 3 | 2 of 9 |
| S26I Y30C K50S | 590 nM | 1 of 3 | 1 of 9 |
| E23Y N33D V97A | 41 µM | 1 of 3 | 3 of 9 |
| G24E K50Q R53L | 20 µM | 2 of 3 | 4 of 9 |
| G24T G49I R53G | 35 µM | 1 of 3 | 2 of 9 |
| G24E D25C S93L | 23 µM | 2 of 3 | 2 of 9 |
| G49W N52E R90D | 13 µM | 2 of 3 | 3 of 9 |
| E23C Y29L S89V | 3.1 µM | 3 of 3 | 4 of 9 |
| E23K Y29T K50N | 23 nM | 3 of 3 | 6 of 9 |
| L27C R90F G94P | 17 µM | 1 of 3 | 4 of 9 |
| N33W S92F F95L | no signal | 0 of 3 | 1 of 9 |
| L27Y S55P F98N | 38 µM | 1 of 3 | 2 of 9 |
| Y29C R90H F98S | 3.8 µM | 3 of 3 | 6 of 9 |
| D25L D91R Q96N | 560 nM | 3 of 3 | 7 of 9 |
| R28C Y31L G94F | 7.8 µM | 3 of 3 | 4 of 9 |
| Y31P R90E F95N | 51 nM | 3 of 3 | 1 of 9 |
| D25V N51G R90F | no signal | 0 of 3 | 1 of 9 |
| S26T N33P P54Q | 650 nM | 2 of 3 | 2 of 9 |
| N52H S55D R90N | 440 nM | 3 of 3 | 3 of 9 |
| Y30N P54K S89N | 17 µM | 1 of 3 | 1 of 9 |
| Y30H S55R R90Y | 96 nM | 3 of 3 | 3 of 9 |
| S89M F95R F98I | 2.2 µM | 2 of 3 | 3 of 9 |
| E23Y K50C S55R | 8.0 µM | 3 of 3 | 4 of 9 |
| Y31Q S88A F98Y | 14 nM | 3 of 3 | 2 of 9 |
| D25T Y29L V97I | 4.7 µM | 3 of 3 | 3 of 9 |
| A32T S55N Q96E | 1.1 µM | 3 of 3 | 1 of 9 |
| S26F S89L V97N | no signal | 0 of 3 | 1 of 9 |
| R90I S92P S93D | 300 nM | 3 of 3 | 2 of 9 |
| D25A R90D S93Y | 51 µM | 2 of 3 | 0 of 9 |
| S26M L27V N33C | 2.0 µM | 1 of 3 | 5 of 9 |
| D25R D91K F98N | 7.9 µM | 1 of 3 | 2 of 9 |
| N52G P54I | 2.3 µM | 3 of 3 | 1 of 9 |
| L27R Y30A S93W | 240 µM | 1 of 3 | 2 of 9 |
| G24D N52Q V97F | 340 nM | 3 of 3 | 1 of 9 |
| Y30V G94R | 150 nM | 3 of 3 | 4 of 9 |

Picked from the list: the 4 lowest averages where every replicate gave a value.

| changes | apparent Kd | replicates with signal | signal with controls |
|---|---|---|---|
| Y31Q S88A F98Y | 14 nM | 3 of 3 | 2 of 9 |
| E23K Y29T K50N | 23 nM | 3 of 3 | 6 of 9 |
| Y31D K50W S55G | 49 nM | 3 of 3 | 6 of 9 |
| Y31P R90E F95N | 51 nM | 3 of 3 | 1 of 9 |